Measurements: patent US5519029A, “2-aminoalkyl-5-aminoalkylamino substituted-isoquinoindazole-6(2H)-ones” (Boehringer Mannheim Italia, S.p.A., priority 1993, dated 1996)

What was measured:
[1] = system: Lovo/DX; assay: MTT cytotoxicity assay, multidrug-resistant subline Lovo/DX; assay type: cell-based, human; details: ratio of the IC50 for the resistant line cell to the IC50 for the sensitive cell line
Method: The evaluation of the biological activity for the compounds of this invention was performed in vitro and in vivo following the protocols developed by the U.S. National Cancer Institute.
The evaluation of the in vitro cytotoxic activity of the compounds of the invention was performed using a human colon adenocarcinoma cell line (Lovo) isolated from a metastatic nodule, and a subline expressing multidrug resistance. The subline is resistant to a number of antitumor agents, among which are doxorubicin, VP-16, and vincristine.

[2] = system: cell histotypes developing resistance against doxorubicin mediated by overexpression of glycoprotein P; details: doxorubicin-resistant cells; cited from earlier work

## O=C1c2c(O)ccc(O)c2C(=O)c2c(NCCNCCO)ccc(NCCNCCO)c21 [MITOXANTRONE, 5,8-dihydroxy-1,4-bis{[2-(2-hydroxyethylamino)ethyl]amino}anthracene-9,10-dione]
[1]
  RI (resistance index): 22.5
[2]
  cross-resistance (in words): cross-resistance
